scFv variants of Ab-14 (light chain) against a SARS-CoV-2 spike peptide

Reference: Li et al. 2023, doi:10.1038/s41467-023-39022-2. File: FLAb, binding data.

Target peptide (SARS-CoV-2 spike, HR2 region): PDVDLGDISGINAS

Each scFv is VH, a 15-residue (Gly4Ser)3 linker, VL, as in the parent Ab-14, and differs from it in the CDRs of the light chain only.
VH: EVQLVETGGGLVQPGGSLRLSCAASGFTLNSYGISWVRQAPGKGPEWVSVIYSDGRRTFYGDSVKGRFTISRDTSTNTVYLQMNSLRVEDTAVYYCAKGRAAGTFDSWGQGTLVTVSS
VL: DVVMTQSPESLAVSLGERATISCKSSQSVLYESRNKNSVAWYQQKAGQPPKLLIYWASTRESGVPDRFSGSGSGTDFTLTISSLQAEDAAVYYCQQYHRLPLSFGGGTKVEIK

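These sequences belong to a second round, designed from the earlier measurements on random variants of the parent. Group labels follow the data file (Rand: our label for a block that the file lists under HC and that is probably the random mutants of the ten best first-round binders; En: ensemble of fine-tuned language models; GP: Gaussian process model; HC: hill climbing; Gen: genetic algorithm; Gibbs: Gibbs sampling; a sequence that several methods proposed may carry one label only). The scFvs were displayed on barcoded MATa yeast, the peptide on MATalpha yeast. After mating in shaken culture at 30 °C for 16 h, diploids were selected and their barcode pairs sequenced. Read counts were normalised to the haploid input and turned into Kd by a linear fit to BCL2-family pairs of known affinity, for each replicate. The assay was run in six technical replicates.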

The parent's light chain CDRs are KSSQSVLYESRNKNSVA, WASTRES, QQYHRLPLS; each variant's own CDRs replace them letter for letter.
Variants here have more than six changes.
The Kd shown is the geometric mean over detected replicates; a lower Kd is a better binder.
An entry "nd" has no value in the source: the pair was not observed among the diploids in any replicate. This suggests poor binding but is not conclusive.
The authors' rule: three or more of the six replicates give a measured affinity, fewer mean a poor binder.

* KSSISYLYESRNKNSVA | EPSTFES | QQYHVLPLC [Rand]: 20 nM (1 of 6 replicates)
* KLTNITGTEKVIGNNVA | EMETREK | QQYNRLPLS [En_Gen]: 11 nM (6 of 6 replicates)
* NITQIFDNMGDQRSNVA | NGETLFH | QQYARLPLL [En_Gibbs]: 3.8 nM (6 of 6 replicates)
* KIYQATAMTSSMRNNVA | DLNERER | QQYFRLPLS [En_HC]: 1.3 nM (6 of 6 replicates)
* TISHSTDLESVHKNNIA | DLMTRES | QQYDRLPLS [En_HC]: 2.4 nM (6 of 6 replicates)
* QISMLLNFESKVGNNVA | QMETRVN | QQYDRLPLS [En_Gen]: 35 nM (6 of 6 replicates)
* HMNHEFLGYWNYEQAIA | HESQRLY | QQYSRLPLS [En_Gibbs]: nd (0 of 6 replicates)
* KLAMYLEMNARTIHAIA | EANLKTS | QQYNRLPIS [En_Gibbs]: nd (0 of 6 replicates)
* MIEIIHDGYEEMRSAIA | DTSLVRM | QQYYRLPLM [En_Gibbs]: 75 nM (3 of 6 replicates)
* MLWQQMEGFNLHKDAIA | NAKERTG | QQYGRLPLS [En_Gibbs]: 52 nM (5 of 6 replicates)
* KLSQVYGYESTNSNSVA | DASTRED | QQYHRLPLS [GP_Gibbs]: 630 pM (6 of 6 replicates)
* ALALTLHQNESNQSNIA | QVMEREV | QQYYRLPLG [En_Gibbs]: 74 nM (1 of 6 replicates)
* KLDMNELGQSQNSSHVA | GSAQKCS | QQYSRLPLS [En_Gibbs]: 53 nM (6 of 6 replicates)
* KHEEGVWYESRNKNSVA | EGSTRES | QQYHRLPLS [GP_Gibbs]: 1.3 nM (6 of 6 replicates)
* MLSDLVKMGSRETNSVA | DNSTRGS | QQYDRLPLS [En_HC]: 23 nM (6 of 6 replicates)
* QMKASLLQGIYRQDSVA | SDDIRAL | QQYHHLPLS [En_Gibbs]: 25 nM (6 of 6 replicates)
* KLSQSNGYEDRNKNSVA | SASQREM | QQYHRLPLS [GP_Gibbs]: 690 pM (6 of 6 replicates)
* NLSIQNQPQNMSANAVA | QTESRCE | QQYAQLPLA [En_Gibbs]: 160 nM (6 of 6 replicates)
* IISGSMLMESRNKNSVA | NAENREY | QHYDRLPLS [En_HC]: 11 nM (5 of 6 replicates)
* KLAYQADMYGVQCNNVA | HADIREP | QQYFKLPLN [En_Gibbs]: 28 nM (6 of 6 replicates)
* KLRQITGYESRNKDSIA | DNSTRGR | QQYHRLPLS [En_HC]: 140 nM (4 of 6 replicates)
* TISQLHNMGTFAINSVA | QAEIRNA | QQYDRLPLT [En_Gen]: 11 nM (6 of 6 replicates)
* TISQSAQTESHNKNSVA | DLSVRGS | QQYDRLPLS [En_HC]: 6.4 nM (6 of 6 replicates)
* KQSQSQLYESGNGNSVA | NASVRED | QQYHRLPLM [GP_Gibbs]: 8.5 nM (6 of 6 replicates)
* MISQLTNMGQFAINSVA | QASIRNA | QQYDRLPLA [En_Gen]: 7.9 nM (6 of 6 replicates)
* IVSQLMLWGWHAKNSIA | EAEMRLN | QQYHRLPLF [En_Gen]: nd (0 of 6 replicates)
* MISQLFNMGQFAINSVA | QASQRCE | QQYDRLPLL [En_Gen]: 100 nM (6 of 6 replicates)
* TISQMFLGESRNRNSVA | QASTREH | QSYDRLPLS [En_HC]: 11 nM (6 of 6 replicates)
* KLSISIRGEGSEVQSVA | GAEELRQ | QHYNQLPLS [En_Gibbs]: 12 nM (6 of 6 replicates)
* KIGMVLNQMLHQKNNVA | DLVVREN | QQYHRLPLS [En_Gen]: 5.6 nM (6 of 6 replicates)
* HMNTADVGVSDHYNSVA | EQREAGI | QQYFRLPLS [En_Gibbs]: 18 nM (6 of 6 replicates)
* SFPSEMNQQQTQVNSVA | GEQHTAR | QQYGRLPLS [En_Gibbs]: nd (0 of 6 replicates)
* KLHQSWLYLSRNHNSVA | HASQRCS | QQYHRLPLS [GP_Gibbs]: 10 nM (6 of 6 replicates)
* RMSVFMLTDENVWYSIA | NSAATRT | QQYQRLPLS [En_Gibbs]: nd (0 of 6 replicates)
* KLSQSWLYLSRNSNSVA | NASQRED | QQYHRLPLS [GP_Gibbs]: 740 pM (6 of 6 replicates)
* NISTQIPEFEMWDNAIA | GATLRPT | QHYARLPLS [En_Gibbs]: 6.5 nM (6 of 6 replicates)
* KLSMSYRQETEEKNSIA | ELVTRMS | QQYHRLPLS [En_HC]: 12 nM (6 of 6 replicates)
* KLSMVTGHLSMAKNNVA | EMVTREN | QQYNRLPLA [En_Gen]: 510 pM (6 of 6 replicates)
* RLSALSGIQEVNRNSVA | QNSTRES | QQYDHLPLS [En_Gen]: 2.4 µM (2 of 6 replicates)
* QIMEEQSMRTEGTWNIA | QGEQKVH | QQYFRLPLA [En_Gibbs]: 82 nM (3 of 6 replicates)
* KWQQSDDQESRNHNSVA | HASTRCS | QQYHRLPLS [GP_Gibbs]: 4.5 nM (6 of 6 replicates)
* TISQSVNMTSRGKNSVA | QAEMRED | QQYDRLPLS [En_HC]: 37 nM (6 of 6 replicates)
* KLSQSVEVLSRNDNSVA | NASTREM | QQYHRLPLS [GP_Gibbs]: 540 pM (6 of 6 replicates)
* KQSQSDGGEQRNKNSVA | EASTRCM | QQYHRLPLS [GP_Gibbs]: 1.2 nM (6 of 6 replicates)
* HMSMLTMLGSRNRNSVA | QMTTREN | QQYDRLPLA [En_Gen]: 60 nM (5 of 6 replicates)

8 of these entries, quoted again:

* TISQSAQTESHNKNSVA | DLSVRGS | QQYDRLPLS [En_HC] = 6.4 nM (6 of 6 replicates)
* KIYQATAMTSSMRNNVA | DLNERER | QQYFRLPLS [En_HC] = 1.3 nM (6 of 6 replicates)
* KLSQSVEVLSRNDNSVA | NASTREM | QQYHRLPLS [GP_Gibbs] = 540 pM (6 of 6 replicates)
* IVSQLMLWGWHAKNSIA | EAEMRLN | QQYHRLPLF [En_Gen] = nd (0 of 6 replicates)
* TISQMFLGESRNRNSVA | QASTREH | QSYDRLPLS [En_HC] = 11 nM (6 of 6 replicates)
* MLSDLVKMGSRETNSVA | DNSTRGS | QQYDRLPLS [En_HC] = 23 nM (6 of 6 replicates)
* HMSMLTMLGSRNRNSVA | QMTTREN | QQYDRLPLA [En_Gen] = 60 nM (5 of 6 replicates)
* KLSQSWLYLSRNSNSVA | NASQRED | QQYHRLPLS [GP_Gibbs] = 740 pM (6 of 6 replicates)

Values of this round are not directly comparable with the first-round values of the same sequences.
Of ten entries with the parent sequence, four were seen in most replicates (averages 2.2 nM to 240 nM), three in one and three in none, so single entries are noisy.
As a blank, each scFv also met three strains without target: over all light chain designs, 4% of these pairings were detected, typically at 430 nM and seldom below 38 nM.